Assay results as given in US20100099198A1 (priority 2008, published 2010).

Assays:
[1] = target: (M113F)7(T145F)7(K147N)7 αHL protein pore (Staphylococcus aureus, UniProt P09616, K173N/M139F/T171F)
[2] = tested on: double-channel consisting of a single (M113R)7(T145R)7 pore and a single (M113F)7(T145F)7(K147N)7 protein; settings: single component present, -40 mV, combined open channel current -51.0 pA, FIG. 9b

## cyclo(P-G)3
[1]; single (M113F)7(T145F)7(K147N)7 pore (sensor 2 of FIG. 8), -40 mV, 10 μM cyclo(P-G)3, open channel current -28.3 pA
  mean residual current of events: −6.4 pA
[2]
  mean residual current of current blockage events: −31.3 pA

## Y-Y-Y-Y-Y-Y
[1]; in (M113F)7(T145F)7(K147N)7, 1 M NaCl, 10 mM Tris.HCl pH 7.5, FIG. 6
  dwell time: 7333.6 ms

## Y-G-R-K-K-R-R-Q-R-R-R
[1]; sensor 1 of four-pore array = (M113F)7(T145F)7(K147N)7 pore
  signal (current blocking events) in sensor 1: very weak response
